Source: patent US9169205B2, “Pyrrolidine derivatives, pharmaceutical compositions and uses thereof” (Boehringer Ingelheim International GmbH, priority 2012, dated 2015)

Sequences of proteins named here, by UniProt entry; tags and fusion partners are left off. Residues count along the entry.
UniProt O00763, 129-2458 limits assumed: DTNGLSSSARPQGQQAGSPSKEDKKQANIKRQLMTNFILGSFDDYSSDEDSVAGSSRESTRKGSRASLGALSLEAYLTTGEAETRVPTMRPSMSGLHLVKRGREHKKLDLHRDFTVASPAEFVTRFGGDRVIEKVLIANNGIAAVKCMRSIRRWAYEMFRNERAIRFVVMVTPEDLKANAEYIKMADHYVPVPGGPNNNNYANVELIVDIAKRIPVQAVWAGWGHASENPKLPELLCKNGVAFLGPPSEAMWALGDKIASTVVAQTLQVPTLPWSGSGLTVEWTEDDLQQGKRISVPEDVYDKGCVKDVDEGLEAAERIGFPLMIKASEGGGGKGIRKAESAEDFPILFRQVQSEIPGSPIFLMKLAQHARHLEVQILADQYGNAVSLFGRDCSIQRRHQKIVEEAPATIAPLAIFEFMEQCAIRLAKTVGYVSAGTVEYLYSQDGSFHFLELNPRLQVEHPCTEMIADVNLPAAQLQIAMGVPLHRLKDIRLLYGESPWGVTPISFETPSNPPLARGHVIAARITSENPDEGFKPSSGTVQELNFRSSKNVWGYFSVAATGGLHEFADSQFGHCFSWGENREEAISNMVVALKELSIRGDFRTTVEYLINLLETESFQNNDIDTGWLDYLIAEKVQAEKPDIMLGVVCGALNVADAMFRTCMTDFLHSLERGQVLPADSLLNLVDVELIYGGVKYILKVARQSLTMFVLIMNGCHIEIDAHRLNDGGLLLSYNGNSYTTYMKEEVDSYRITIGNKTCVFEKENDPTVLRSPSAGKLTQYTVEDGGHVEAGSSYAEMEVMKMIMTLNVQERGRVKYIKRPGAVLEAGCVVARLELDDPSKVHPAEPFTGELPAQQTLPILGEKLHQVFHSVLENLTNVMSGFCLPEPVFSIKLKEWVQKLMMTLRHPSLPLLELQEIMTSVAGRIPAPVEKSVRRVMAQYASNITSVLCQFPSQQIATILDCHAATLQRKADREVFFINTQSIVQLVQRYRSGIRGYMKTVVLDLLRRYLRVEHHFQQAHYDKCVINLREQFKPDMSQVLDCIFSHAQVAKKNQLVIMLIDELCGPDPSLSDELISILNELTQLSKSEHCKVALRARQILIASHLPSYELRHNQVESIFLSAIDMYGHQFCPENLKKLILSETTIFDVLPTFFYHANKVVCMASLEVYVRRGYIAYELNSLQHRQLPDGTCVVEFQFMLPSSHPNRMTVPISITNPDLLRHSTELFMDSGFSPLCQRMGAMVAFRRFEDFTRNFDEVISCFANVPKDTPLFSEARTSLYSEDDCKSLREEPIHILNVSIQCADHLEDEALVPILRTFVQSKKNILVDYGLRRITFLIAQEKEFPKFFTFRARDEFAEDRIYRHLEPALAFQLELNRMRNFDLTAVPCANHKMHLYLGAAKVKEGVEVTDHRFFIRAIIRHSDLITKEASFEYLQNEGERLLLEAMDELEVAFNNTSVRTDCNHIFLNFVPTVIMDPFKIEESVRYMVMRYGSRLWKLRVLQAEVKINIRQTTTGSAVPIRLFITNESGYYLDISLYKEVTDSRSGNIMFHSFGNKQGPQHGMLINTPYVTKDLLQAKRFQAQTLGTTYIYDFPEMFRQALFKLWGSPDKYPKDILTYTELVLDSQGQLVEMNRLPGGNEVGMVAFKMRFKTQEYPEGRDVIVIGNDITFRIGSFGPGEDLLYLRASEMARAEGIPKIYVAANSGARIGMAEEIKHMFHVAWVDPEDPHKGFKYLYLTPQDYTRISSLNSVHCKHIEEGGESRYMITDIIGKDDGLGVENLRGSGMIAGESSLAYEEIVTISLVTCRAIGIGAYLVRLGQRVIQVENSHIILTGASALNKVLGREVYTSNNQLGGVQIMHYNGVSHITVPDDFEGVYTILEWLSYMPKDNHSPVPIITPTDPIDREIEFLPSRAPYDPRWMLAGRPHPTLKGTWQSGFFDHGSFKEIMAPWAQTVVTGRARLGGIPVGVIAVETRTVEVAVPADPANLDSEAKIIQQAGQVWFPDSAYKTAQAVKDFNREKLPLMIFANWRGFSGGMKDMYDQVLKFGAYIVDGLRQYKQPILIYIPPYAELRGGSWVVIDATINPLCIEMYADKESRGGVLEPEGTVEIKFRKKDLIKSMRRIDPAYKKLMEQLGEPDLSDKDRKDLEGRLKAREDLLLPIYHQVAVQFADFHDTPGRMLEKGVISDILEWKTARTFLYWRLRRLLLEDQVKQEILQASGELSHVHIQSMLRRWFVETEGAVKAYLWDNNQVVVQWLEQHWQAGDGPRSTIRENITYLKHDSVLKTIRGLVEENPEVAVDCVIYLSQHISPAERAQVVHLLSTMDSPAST

Biological target: human ACC2 (Homo sapiens (Human), UniProt O00763)
Assay: ACC2 assay (spectrophotometric 384 well assay, NADH-linked kinetic method)
Conditions: hACC2 construct lacking 128 N-terminal amino acids, 25° C., 340 nm

Row | Compound | IC50 [nM]
1 | C[C@H](NC(=O)N(C)C)c1ccc(O[C@@H]2CCN(c3ccc(OCC4CC4(F)F)cc3F)C2)cc1 (some centres unmarked) | 389
2 | CC(=O)N[C@@H](C)c1ccc(O[C@@H]2CCN(c3ccc(Cl)c(Cl)c3)C2)cc1 | 385
